Data from patent US20160302455A1, “Methods Of Producing An Antimicrobial Solution And Methods For Reducing Bacteria On Produce And/Or Minimizing Enzymatic Browning Of Produce” (priority 2015, published 2016).
Read-outs that look alike come from different tables or passages of the source. Ends that are not written are not given here.

Tests used:
[1] = test system: Yeast and mold
[2] = test system: Lactic acid bacteria; conditions: cantaloupe, after washing; control 3.0 ± 0.4
[3] = test system: Lactic acid bacteria; conditions: honeydew, after washing; control 1.0 ± 0.4
[4] = test system: Salmonella spp.; format: cell-based
[5] = test system: Pseudomonas spp.; conditions: cantaloupe, after washing; control 2.4 ± 0.3; BD = Below detection (<1 CFU/g)
[6] = test system: Salmonella spp.; format: cell-based; remark: listed apart in the source
[7] = test system: Aerobic, mesophilic bacteria; format: cell-based
[8] = test system: Pseudomonas spp.; conditions: honeydew, after washing; control 1.4 ± 0.3
[9] = test system: L. monocytogenes; format: cell-based, Listeria monocytogenes
[10] = after treatment, initial population 2.7 ± 0.22

O=C(O)CC(O)(CC(=O)O)C(=O)O [Citric Acid (10 mM), Citric acid]
Log reduction of yeast and mold on cantaloupe rind surface [1, 10]: (0.8) log

O=C(O)CN(CCN(CC(=O)O)CC(=O)O)CC(=O)O [EDTA (0.02 M), ethylenediaminetetraacetic acid]
Log reduction of yeast and mold on cantaloupe rind surface [1, 10]: (0.3) log

C/C=C/C=C/C(=O)O [Sorbic acid (0.03%), Sorbic acid]
Log reduction of yeast and mold on cantaloupe rind surface [1, 10]: (2.3) log

OO [hydrogen peroxide]
Population of lactic acid bacteria, whole surface [2]: 0.8 ± 0.04C Log10 CPU/cm^2
Population of lactic acid bacteria, whole surface [3]: 0.3 ± 0.04B Log10 CFU/cm^2
Surviving population of Salmonella spp., watermelon rind surface, Treated [4]: 0.49 ± 0.10A Log10 CFU/cm^2
Population of Pseudomonas spp., whole surface [5]: 0.6 ± 0.06C Log10 CPU/cm^2
ELR (Estimated log reduction) of Salmonella spp., cantaloupe [6]: 2.5 Log10 CFU/cm^2
Surviving population of Salmonella spp., cantaloupe rind surface, Treated [6]: 1.89 ± 0.04A Log10 CFU/cm^2
Population of aerobic, mesophilic bacteria, whole surface [7]: 3.1 ± 0.13B Log10 CPU/cm^2
Population of Pseudomonas spp., whole surface [8]: 0.4 ± 0.06B Log10 CFU/cm^2
Log reduction of yeast and mold on cantaloupe rind surface [1, 10]: (2.6) log
Population of yeast and mold, whole surface ([1]; cantaloupe, after washing, control 3.0 ± 0.10): 0.9 ± 0.02C Log10 CPU/cm^2
Surviving population of L. monocytogenes, watermelon rind surface, Treated [9]: 0.42 ± 0.10A Log10 CFU/cm^2

Sodium Lactate [Sodium Lactate (2%)]
Log reduction of yeast and mold on cantaloupe rind surface [1]: (1.5) log

nisin (ITSISLCTPGCKTGALMGCNMKTATCHCSIHVSK; not fully specified (some residues, bridges); cysteine pairing not given here; UniProt P13068 24-57, looked up) [Nisin (30 mg; (~10 μg/ml)]
Log reduction of yeast and mold on cantaloupe rind surface [1]: (0.9) log
